Patent US9434725B2, “5-azaindazole compounds and methods of use” (priority 2012, dated 2016)

Protein sequences, listed by entry. Tags and fused reporters are not part of them. Lines headed by an entry give the natural chain unless they say otherwise; changes in a name come on top.
UniProt Q9P1W9: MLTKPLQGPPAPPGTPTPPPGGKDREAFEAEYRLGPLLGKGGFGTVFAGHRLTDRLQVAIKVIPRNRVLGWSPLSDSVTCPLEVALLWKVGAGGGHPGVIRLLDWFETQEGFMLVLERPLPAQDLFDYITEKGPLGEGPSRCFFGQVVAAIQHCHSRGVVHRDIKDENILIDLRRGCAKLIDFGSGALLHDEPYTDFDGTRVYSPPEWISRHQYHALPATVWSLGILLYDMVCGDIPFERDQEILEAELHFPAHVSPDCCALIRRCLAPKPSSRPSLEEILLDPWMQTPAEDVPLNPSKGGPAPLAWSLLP
UniProt P11309, whole entry: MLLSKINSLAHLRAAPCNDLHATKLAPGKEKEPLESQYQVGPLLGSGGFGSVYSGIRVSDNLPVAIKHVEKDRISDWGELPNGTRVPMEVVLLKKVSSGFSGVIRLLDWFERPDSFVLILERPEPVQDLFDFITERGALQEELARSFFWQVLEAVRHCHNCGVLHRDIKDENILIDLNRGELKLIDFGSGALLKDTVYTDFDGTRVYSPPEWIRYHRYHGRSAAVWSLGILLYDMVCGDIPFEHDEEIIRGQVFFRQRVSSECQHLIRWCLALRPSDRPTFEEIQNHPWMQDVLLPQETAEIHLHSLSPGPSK

How the values were obtained:
[1] = biological target: PIM2 (Homo sapiens (Human), UniProt Q9P1W9); assay: Pim kinase binding activity, Caliper LC3000 microfluidic peptide phosphorylation assay, PIM2; assay type: biochemical; details: 10 μM ATP, 90 min, room temperature; read-out: PIM2 LC3K (KI)
Procedure: (§1) A fluorescent-labeled Pim-specific peptide substrate, was custom synthesized by American Peptide Company (Sunnyvale, Calif.). Reaction Buffer contained 10 mM HEPES, pH 7.2, 10 mM MgCl2, 0.01% Tween 20, 2 mM DTT. Termination Buffer contained 190 mM HEPES, pH 7.2, 0.015% Brij-35, 0.2% Coating Reagent 3 (Caliper Life Sciences, Hopkinton, Mass.), 20 mM EDTA. Separation Buffer contained 100 mM HEPES, pH 7.2, 0.015% Brij-35, 0.1% Coating Reagent 3, 1:200 Coating Reagent 8 (Caliper Life Sciences, Hopkinton, Mass.), 10 mM EDTA and 5% DMSO.
(§2) PIM reactions were carried out in a final volume of 10 μL per well in a 384-well plate. […] After 90 minutes of incubation at room temperature, the phosphorylation reaction was stopped by the addition of 10 μL Termination Buffer. The product and substrate in each independent reaction were separated on a 12-sipper microfluidic chip (Caliper Life Sciences, Hopkinton, Mass.) run on a Caliper LC3000® (Caliper Life Sciences, Hopkinton, Mass.). The separation of product and substrate was optimized by choosing voltages and pressure using Caliper's Optimizer software (Hopkinton, Mass.). The separation conditions used a downstream voltage of −500V, an upstream voltage of −2150V, and a screening pressure of −1.2 psi. […] Substrate conversion was calculated from the electropherogram using HTS Well Analyzer software (Caliper Life Sciences, Hopkinton, Mass.). Ki values for the test compound were calculated.

[2] = biological target: PIM1 (Homo sapiens (Human), UniProt P11309); assay type: biochemical; details: 10 μM ATP, 90 min, room temperature; read-out: PIM1 LC3K (KI)
Procedure: as §1, §2

[3] = test system: BaF3 PIM1 cells; assay: In vitro cell proliferation potency assay (Cell Titer Glo), BaF3 PIM1 cells; assay type: cell-based, murine; details: read-out: Prolif BaF3_PIM 1 (IC50)
Procedure: BaF3 parental line was obtained from the DSMZ repository. BaF3 lines transfected with PIM1 or PIM2 were generated. Mouse IL-3 was purchased from R&D Systems. G418 was purchased from Clontech. Media for BaF3 parental line contained RPMI, 10% FBS, 2 mM L-Glutamine, 2 ng/mL mIL-3. Media for BaF3 PIM1 & 2 lines contained RPMI, 10% FBS, 2 mM L-Glutamine, […]. Media for MM1.S (multiple myeloma cells) line contained RPMI, 10% FBS, 2 mM L-Glutamine.
BaF3, a murine interleukin-3 dependent pro-B cell line, parental cells, BaF3 PIM1 cells, BaF3 PIM2 cells, and MM1.S (multiple myeloma) cells were seeded at 2 k/well, 5 k/well, 5 k/well, and 10 k/well respectively, in a 384-well plate, at 45 μL/well. Test compound was added at 5 μL/well. BaF3 cells (parental and transfected) were incubated overnight, while MM1.S cells were incubated for 72 hours at 37° C., 5% CO2. CELL TITER GLO® Reagent (Promega) was added at 50 μL/well, the plates were incubated for 30 minutes, and their luminescence read on an HT Analyst. IC50/EC50 values for the test compound were calculated.

[4] = biological target: PIM3 (Homo sapiens (Human), UniProt Q86V86); assay: Pim kinase binding activity, Caliper LC3000 microfluidic peptide phosphorylation assay, PIM3; assay type: biochemical; details: 10 μM ATP, 90 min, room temperature; read-out: PIM3 LC3K (KI)
Procedure: as §1, §2

[5] = BaF3 cells transfected with PIM1, incubated overnight
[6] = Mus musculus, BaF3, BaF3 cells transfected with PIM1, incubated overnight

Cc1cncc(-c2cc3c(cn2)cnn3-c2cccc(N3CC(N)CCC3C)n2)n1 (single isomer, unassigned) [Compound 182, 6-methyl-1-[6-[6-(6-methylpyrazin-2-yl)pyrazolo[4,3-c]pyridin-1-yl]-2-pyridyl]piperidin-3-amine]
Ki [1]: 0.761 nM

Cc1cncc(-c2cc3c(cn2)cnn3-c2cccc(C3CCCC(N)C3)n2)n1 (single isomer, unassigned) [Compound 210, 3-[6-[6-(6-methylpyrazin-2-yl)pyrazolo[4,3-c]pyridin-1-yl]-2-pyridyl]cyclohexanamine]
Ki [2]: 0.609 nM | Ki [1]: 9.39 nM

Cc1cncc(-c2cc3c(cn2)cnn3-c2cccc(C3CCCC(N)C3)n2)n1 (single isomer, unassigned) [Compound 211, 3-[6-[6-(6-methylpyrazin-2-yl)pyrazolo[4,3-c]pyridin-1-yl]-2-pyridyl]cyclohexanamine]
IC50 [3, 5]: 459 nM | Ki [4]: 0.074 nM

Cc1cncc(-c2cc3c(cn2)cnn3-c2cccc(C3CCCC(N)C3)n2)n1 (single isomer, unassigned) [Compound 212, 3-[6-[6-(6-methylpyrazin-2-yl)pyrazolo[4,3-c]pyridin-1-yl]-2-pyridyl]cyclohexanamine]
Ki [2]: 0.483 nM | IC50 [3, 5]: 1600 nM | Ki [1]: 2.99 nM

Cc1cncc(-c2cc3c(cn2)cnn3-c2cccc(C3CNCCC3(F)F)n2)n1 (single isomer, unassigned) [Compound 272]
Ki [4]: 0.0235 nM

Cn1cc(-c2cc3c(cn2)cnn3-c2cccc(N3CCNCC3)n2)cn1 [Compound 102, 6-(1-methyl-1H-pyrazol-4-yl)-1-(6-(piperazin-1-yl)pyridin-2-yl)-1H-pyrazolo[4,3-c]pyridine]
Ki [4]: 0.291 nM

CCc1cncc(-c2cc3c(cn2)cnn3-c2cccc(N3CCNCC3)n2)c1 [Compound 104, 6-(5-ethylpyridin-3-yl)-1-(6-(piperazin-1-yl)pyridin-2-yl)-1H-pyrazolo[4,3-c]pyridine]
Ki [1]: 3.86 nM

CCc1cncc(-c2cc3c(cn2)cnn3-c2cccc(N3CCNCC(O)C3)n2)c1 (stereo not drawn) [Compound 106, 1-(6-(6-(5-ethylpyridin-3-yl)-1H-pyrazolo[4,3-c]pyridin-1-yl)pyridin-2-yl)-1,4-diazepan-6-ol]
Ki [2]: 0.104 nM | IC50 [3, 6]: 1200 nM | Ki [4]: 0.159 nM

CCn1cc(-c2cc3c(cn2)cnn3-c2cccc(N3CCCNCC3)n2)cn1 [Compound 125, 1-(6-(1,4-diazepan-1-yl)pyridin-2-yl)-6-(1-ethyl-1H-pyrazol-4-yl)-1H-pyrazolo[4,3-c]pyridine]
Ki [2]: 0.29 nM | IC50 [3, 6]: 1400 nM | Ki [4]: 0.226 nM

CCn1cc(-c2cc3c(cn2)cnn3-c2cccc(N3CC[C@@H](O)C3)n2)cn1 [Compound 128, (R)-1-(6-(6-(1-ethyl-1H-pyrazol-4-yl)-1H-pyrazolo[4,3-c]pyridin-1-yl)pyridin-2-yl)pyrrolidin-3-ol]
Ki [1]: 56.7 nM

Cc1cncc(-c2cc3c(cn2)cnn3-c2cccc(N3CCCNCC3)n2)n1 [Compound 138, 1-[6-(1 4-diazepan-1-yl)-2-pyridyl]-6-(6-methylpyrazin-2-yl)pyrazolo[4,3-c]pyridine]
Ki [2]: 0.0204 nM | IC50 [3, 6]: 574 nM | Ki [4]: 0.0199 nM

Cc1cncc(-c2cc3c(cn2)cnn3-c2cccc(N3CC(N)CCC3C)n2)n1 (stereo not drawn) [Compound 171, 6-methyl-1-[6-[6-(6-methylpyrazin-2-yl)pyrazolo[4,3-c]pyridin-1-yl]-2-pyridyl]piperidin-3-amine]
Ki [1]: 0.204 nM

FC(F)(F)Cn1cc(-c2cc3c(cn2)cnn3-c2ccnc(N3CCCNCC3)n2)cn1 [Compound 179, 1-(2-(1,4-Diazepan-1-yl)pyrimidin-4-yl)-6-(1-(2,2,2-trifluoroethyl)-1H-pyrazol-4-yl)-1H-pyrazolo-[4,3-c]pyridine]
Ki [2]: 0.402 nM | IC50 [3, 6]: 376 nM | Ki [1]: 5.1 nM

Cc1cncc(-c2cc3c(cn2)cnn3-c2cccc(N3CCCCC(N)C3)n2)n1 (stereo not drawn) [Compound 187, 1-[6-[6-(6-methylpyrazin-2-yl)pyrazolo[4,3-c]pyridin-1-yl]-2-pyridyl]azepan-3-amine]
Ki [2]: 0.07 nM | IC50 [3, 6]: 963 nM | Ki [4]: 0.067 nM

Cc1cncc(-c2cc3c(cn2)cnn3-c2cccc(N3CCNC[C@@H]3C)n2)n1 [Compound 196, 1-[6-[(2S)-2-methylpiperazin-1-yl]-2-pyridyl]-6-(6-methylpyrazin-2-yl)pyrazolo[4,3-c]pyridine]
Ki [2]: 0.072 nM | IC50 [3, 6]: 572 nM | Ki [4]: 0.074 nM

Cc1cncc(-c2cc3c(cn2)cnn3-c2ccc(C(F)F)c(N3CCC[C@H](N)C3)n2)n1 [Compound 227, (S)-1-(3-(difluoromethyl)-6-(6-(6-methylpyrazin-2-yl)-1H-pyrazolo[4,3-c]pyridin-1-yl)pyridin-2-yl)piperidin-3-amine]
Ki [2]: 0.036 nM | IC50 [3, 6]: 869 nM | Ki [1]: 0.233 nM

Cc1cncc(-c2cc3c(cn2)cnn3-c2cccc(C3CNCCC3(F)F)n2)n1 (stereo not drawn) [Compound 259, 1-[6-(4,4-difluoro-3-piperidyl)-2-pyridyl]-6-(6-methylpyrazin-2-yl)pyrazolo[4,3-c]pyridine]
Ki [4]: 0.025 nM

Cn1cc(-c2cc3c(cn2)cnn3-c2cccc(N3CC4(CNC4)C3)n2)cn1 [Compound 268, 1-(6-(2,6-Diazaspiro[3.3]heptan-2-yl)pyridin-2-yl)-6-(1-methyl-1H-pyrazol-4-yl)-1H-pyrazolo[4,3-c]pyridine]
Ki [4]: 5.65 nM

OCC(O)c1cncc(-c2cc3c(cn2)cnn3-c2cccc(N3CCNCC3)n2)n1 (stereo not drawn) [Compound 277, 1-(6-(1-(6-(piperazin-1-yl)pyridin-2-yl)-1H-pyrazolo[4,3-c]pyridin-6-yl)pyrazin-2-yl)ethane-1,2-diol]
Ki [2]: 0.224 nM | IC50 [3, 6]: 912 nM | Ki [4]: 0.142 nM

CCNc1cncc(-c2cc3c(cn2)cnn3-c2cccc(N3CCNCC3)n2)n1 [Compound 285, N-ethyl-6-(1-(6-(piperazin-1-yl)pyridin-2-yl)-1H-pyrazolo[4,3-c]pyridin-6-yl)pyrazin-2-amine]
Ki [4]: 0.09 nM

NCCOc1cncc(-c2cc3c(cn2)cnn3-c2cccc(N3CCNCC3)n2)n1 [Compound 286, 2-((6-(1-(6-(piperazin-1-yl)pyridin-2-yl)-1H-pyrazolo[4,3-c]pyridin-6-yl)pyrazin-2-yl)oxy)ethanamine]
Ki [2]: 0.105 nM | IC50 [3, 6]: 4200 nM | Ki [1]: 0.806 nM

Cc1cncc(-c2cc3c(cn2)cnn3-c2ccc(=O)n([C@H]3CCCNC3)n2)n1 [Compound 289, (S)-6-(6-(6-methylpyrazin-2-yl)-1H-pyrazolo[4,3-c]pyridin-1-yl)-2-(piperidin-3-yl)pyridazin-3(2H)-one]
Ki [2]: 31.3 nM | Ki [4]: 30 nM

Cc1cncc(-c2cc3c(cn2)cnn3-c2cccc(C3(F)CCCNC3)n2)n1 (stereo not drawn) [Compound 294, 1-(6-(3-fluoropiperidin-3-yl)pyridin-2-yl)-6-(6-methylpyrazin-2-yl)-1H-pyrazolo[4,3-c]pyridine]
Ki [4]: 0.209 nM

Cc1cncc(-c2cc3c(cn2)cnn3-c2cccc(N(C)C)n2)n1 [Compound 296, N,N-dimethyl-6-(6-(6-methylpyrazin-2-yl)-1H-pyrazolo[4,3-c]pyridin-1-yl)pyridin-2-amine]
Ki [2]: 0.727 nM | IC50 [3, 6]: 3800 nM | Ki [1]: 9.69 nM

FC1CCNCC1c1cccc(-n2ncc3cnc(-c4cnn(CC(F)(F)F)c4)cc32)n1 (stereo not drawn) [Compound 306, 1-(6-(4-fluoropiperidin-3-yl)pyridin-2-yl)-6-(1-(2,2,2-trifluoroethyl)-1H-pyrazol-4-yl)-1H-pyrazolo[4,3-c]pyridine]
Ki [2]: 0.04 nM | IC50 [3, 6]: 129 nM | Ki [1]: 0.56 nM

CC#Cc1cncc(-c2cc3c(cn2)cnn3-c2cccc(N3CCNCC3)n2)n1 [Compound 317, 1-(6-(piperazin-1-yl)pyridin-2-yl)-6-(6-(prop-1-ynyl)pyrazin-2-yl)-1H-pyrazolo[4,3-c]pyridine]
Ki [2]: 0.068 nM | IC50 [3, 6]: 1000 nM

Read-outs that look alike come from different tables or passages of the source.
